Molecular target: human platelet PDE3 (Homo sapiens (Human), UniProt Q14432)
Test: hPDE3 assay ([3H]cAMP scintillation proximity assay)
Assay type: biochemical

The chains behind the UniProt entries cited, without tags or fusion partners. Where a name states a change or a piece, a line headed by the entry shows the natural chain unless it says otherwise.
UniProt Q14432: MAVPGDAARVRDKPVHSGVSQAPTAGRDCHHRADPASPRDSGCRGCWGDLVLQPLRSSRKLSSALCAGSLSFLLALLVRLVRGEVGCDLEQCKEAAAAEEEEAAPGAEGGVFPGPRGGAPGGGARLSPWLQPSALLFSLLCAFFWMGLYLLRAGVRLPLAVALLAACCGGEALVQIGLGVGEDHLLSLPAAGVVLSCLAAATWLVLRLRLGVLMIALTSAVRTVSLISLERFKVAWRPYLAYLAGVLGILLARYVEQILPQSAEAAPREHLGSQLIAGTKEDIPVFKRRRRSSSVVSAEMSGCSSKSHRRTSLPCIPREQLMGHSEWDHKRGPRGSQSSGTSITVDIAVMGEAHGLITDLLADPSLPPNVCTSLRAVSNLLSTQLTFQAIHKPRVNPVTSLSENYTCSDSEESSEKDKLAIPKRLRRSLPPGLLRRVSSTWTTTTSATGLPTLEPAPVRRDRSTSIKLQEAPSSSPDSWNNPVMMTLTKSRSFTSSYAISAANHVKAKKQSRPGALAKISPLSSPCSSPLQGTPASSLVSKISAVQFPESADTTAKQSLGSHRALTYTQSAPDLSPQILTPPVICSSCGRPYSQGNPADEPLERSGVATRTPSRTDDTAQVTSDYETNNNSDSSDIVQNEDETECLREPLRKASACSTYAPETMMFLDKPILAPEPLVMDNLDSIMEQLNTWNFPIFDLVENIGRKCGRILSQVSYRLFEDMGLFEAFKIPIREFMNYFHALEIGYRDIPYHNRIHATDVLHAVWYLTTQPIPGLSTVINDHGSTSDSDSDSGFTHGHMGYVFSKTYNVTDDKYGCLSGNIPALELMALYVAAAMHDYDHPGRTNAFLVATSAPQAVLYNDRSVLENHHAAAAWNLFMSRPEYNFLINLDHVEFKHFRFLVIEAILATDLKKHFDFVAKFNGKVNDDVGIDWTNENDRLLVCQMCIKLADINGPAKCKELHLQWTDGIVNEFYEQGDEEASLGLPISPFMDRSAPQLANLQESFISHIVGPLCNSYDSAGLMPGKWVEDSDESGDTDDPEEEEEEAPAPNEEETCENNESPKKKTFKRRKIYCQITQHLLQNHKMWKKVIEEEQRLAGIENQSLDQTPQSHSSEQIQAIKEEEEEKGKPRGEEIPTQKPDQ

Compared with `Cn1cc(-c2ccc3nnc(Sc4ccc5ncc(N6CCCC(N)C6)cc5c4)n3c2)cn1` (stereo not shown) [Example 10, 1-(6-(6-(1-Methyl-1H-pyrazol-4-yl)-[1,2,4]triazolo[4,3-a]pyridin-3-ylthio)quinolin-3-yl)piperidin-3-amine], `Cn1cc(-c2ccc3nnc(Sc4ccc5ncc(N6CCC(N)CC6)cc5c4)n3c2)cn1` [Example 21, 1-(6-(6-(1-Methyl-1H-pyrazol-4-yl)-[1,2,4]triazolo[4,3-a]pyridin-3-ylthio)quinolin-3-yl)piperidin-4-amine] is 1.8-fold higher in IC50: 17 µM for the first, 30 µM for the second.

First: CC1COCCN1c1cnc2ccc(Sc3nnc4ccc(-c5cnn(C)c5)cn34)cc2c1 (stereo not shown) [Example 59, 3-Methyl-4-(6-(6-(1-methyl-1H-pyrazol-4-yl)-[1,2,4]triazolo[4,3-a]pyridin-3-ylthio)quinolin-3-yl)-morpholine]
Second: CN1CCN(c2cnc3ccc(Sc4nnc5ccc(-c6cnn(C)c6)cn45)cc3c2)CC1 [Example 74, 3-(4-Methyl-piperazin-1-yl)-6-[6-(1-methyl-1H-pyrazol-4-yl)-[1,2,4]triazolo[4,3-a]pyridin-3-ylsulfanyl]-quinoline]
The IC50 of the first is 3-fold lower: 6 µM for the first, 18 µM for the second.
